Data taken from paper PMC3541548 (Bioorganic & medicinal chemistry letters, 2012).

Assay: in vitro
Conditions: human, microsomes

## Cc1ccc(S(=O)(=O)N2CCC(C(=O)NC3CCCCCC3)CC2)c(C)c1 [Compound 2]
  CLint scaled at 1.5 h: 220 mL/min/kg
